Assay results as given in patent US20250263426A1, “PDE4B INHIBITOR AND USE THEREOF” (Xizang Haisco Pharmaceutical Co., Ltd., priority 2022, published 2025).

The chains behind the UniProt entries cited, without tags or fusion partners. A line that says so, or that is headed by a name, gives the form on record, which may keep a tag or linker. Residues count along the entry.
UniProt Q07343, 212-736 with tags or gaps limits assumed: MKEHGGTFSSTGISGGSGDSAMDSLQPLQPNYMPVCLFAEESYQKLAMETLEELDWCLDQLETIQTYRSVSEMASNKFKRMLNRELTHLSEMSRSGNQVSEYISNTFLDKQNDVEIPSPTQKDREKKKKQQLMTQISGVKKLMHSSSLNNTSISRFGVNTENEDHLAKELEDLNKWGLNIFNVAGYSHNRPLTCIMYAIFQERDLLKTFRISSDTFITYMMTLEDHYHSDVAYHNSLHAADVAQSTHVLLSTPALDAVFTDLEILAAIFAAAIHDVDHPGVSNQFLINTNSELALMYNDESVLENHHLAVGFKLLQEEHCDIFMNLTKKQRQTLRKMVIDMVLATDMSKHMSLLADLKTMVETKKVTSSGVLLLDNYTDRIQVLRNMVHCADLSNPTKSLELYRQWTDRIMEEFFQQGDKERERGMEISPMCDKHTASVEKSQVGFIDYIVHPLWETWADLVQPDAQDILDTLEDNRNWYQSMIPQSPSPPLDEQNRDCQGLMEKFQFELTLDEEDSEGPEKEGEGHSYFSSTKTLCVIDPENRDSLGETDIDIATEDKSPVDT
UniProt Q08499, 303-809 limits assumed: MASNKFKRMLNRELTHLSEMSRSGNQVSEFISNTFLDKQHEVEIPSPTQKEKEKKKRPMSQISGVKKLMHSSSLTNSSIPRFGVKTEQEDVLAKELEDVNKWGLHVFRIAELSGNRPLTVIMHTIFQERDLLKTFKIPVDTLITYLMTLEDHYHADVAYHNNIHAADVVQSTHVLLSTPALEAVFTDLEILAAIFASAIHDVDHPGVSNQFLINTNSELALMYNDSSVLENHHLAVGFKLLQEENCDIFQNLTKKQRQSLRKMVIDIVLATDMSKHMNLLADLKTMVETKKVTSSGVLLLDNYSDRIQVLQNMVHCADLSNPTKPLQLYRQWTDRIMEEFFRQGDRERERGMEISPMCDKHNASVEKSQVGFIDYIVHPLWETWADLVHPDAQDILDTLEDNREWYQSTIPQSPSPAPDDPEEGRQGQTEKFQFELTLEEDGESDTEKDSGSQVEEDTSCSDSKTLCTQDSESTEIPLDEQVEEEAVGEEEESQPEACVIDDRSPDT

Key:
[1] = target: PDE4B2 (Homo sapiens (Human), UniProt Q07343); experiment: Effect of compounds on PDE4B2 activity (fluorescence polarization kit); details: read-out: PDE4B2 IC50
[2] = target: PDE4D2 (Homo sapiens (Human), UniProt Q08499); experiment: Effect of compounds on PDE4D2 activity (fluorescence polarization kit); type: biochemical; details: read-out: PDE4D2 IC50
[3] = test system: human peripheral blood mononuclear cells (TNF-α release); experiment: Inhibition of LPS-induced TNF-α release from human peripheral blood mononuclear cells in vitro; type: cell-based; details: hPBMC, 100 ng/mL LPS, 4 h; for IC50: read-out: Re IC50, relative IC50

For `[O-][S+]1CCCc2nc(N3CCc4c(oc5cc(Cl)ccc45)C3)nc(NC3(CO)CCC3)c21` (stereo not drawn), the IC50 [1] was < 10 nM and the IC50 [2] was 10 to 50 nM.

`[O-][S+]1CCc2nc(N3CC=C(c4ncc(Cl)cn4)CC3)nc(N3CC[C@@H](CO)C34CCC4)c21` (stereo partly drawn) was tested, and the “Max inhibition (%)” value [3] was 66.35%, the IC50 [3] was < 10 nM and the IC50 [1] was < 10 nM. The IC50 [2] was < 10 nM.

With `NC(=O)OCC1(Nc2nc(N3CC4C=C(c5ccc6c(c5)CC6)CC4C3)nc3c2[S+]([O-])CC3)CCC1` (single isomer, unassigned) [Compound 45-1] the “Max inhibition (%)” value [3] was 71.28%, the IC50 [3] was 10 to 50 nM and the IC50 [1] was < 10 nM. For the same molecule, the IC50 [2] was < 10 nM.

For `[O-][S+]1CCc2nc(N3CC=C(c4ncc(Cl)cn4)CC3)nc(N3CC[C@H](CO)C34CCC4)c21` (single isomer, unassigned) [Compound 77-2], the IC50 [1] was 10 to 50 nM.

For `[O-][S+]1CCc2nc(N3CC=C(c4ncc(Cl)cn4)CC3)nc(N3CCC(O)C34CCC4)c21` (single isomer, unassigned) [Compound 71-4], the “Max inhibition (%)” value [3] was 57.63%, the IC50 [3] was < 10 nM and the IC50 [1] was < 10 nM. The IC50 [2] was < 10 nM.

With `CC(O)C1(Nc2nc(N3CC=C(c4ncc(C5CC5)cn4)CC3)nc3c2[S+]([O-])CCC3)CCC1` (single isomer, unassigned) [Compound 144-2] the IC50 [1] was < 10 nM and the IC50 [2] was < 10 nM.

`COCC1(Nc2nc(N3CC=C(c4ncc(C5CC5)cn4)CC3)nc3c2[S+]([O-])CCC3)CCC1` (stereo not drawn) gave an IC50 [1] of 10 to 50 nM and an IC50 [2] of 50 to 100 nM.

`NC(=O)OCC1(Nc2nc(N3CC4C=C(c5ccc6c(c5)CC6)CC4C3)nc3c2[S+]([O-])CC3)CCC1` (single isomer, unassigned) [Compound 45-2] was tested, and the IC50 [1] was < 10 nM and the IC50 [2] was 10 to 50 nM.

For `CCOc1cnc(C2=CCN(c3nc4c(c(N5CCC(O)C56CCC6)n3)[S+]([O-])CC4)CC2)nc1` (single isomer, unassigned), the IC50 [1] was < 10 nM and the IC50 [2] was < 10 nM.

For `CC(C)(COC(N)=O)Nc1nc(N2CC=C(c3nc4ccccc4s3)CC2)nc2c1[S+]([O-])CC2` (stereo not drawn), the “Max inhibition (%)” value [3] was 74.08%.

With `[O-][S+]1CCc2nc(N3CC=C(c4ncc(C5CC5)cn4)CC3)nc(N3CCC(CO)C34CCC4)c21` (single isomer, unassigned) the IC50 [1] was < 10 nM and the IC50 [2] was < 10 nM.

In the case of `[O-][S+]1CCc2nc(N3CC=C(c4ncc(Cl)cn4)CC3)nc(N3CC[C@H](CO)C34CCC4)c21` (single isomer, unassigned) [Compound 77-1], the “Max inhibition (%)” value [3] is reported as 65.28%, the IC50 [3] is reported as < 10 nM and the IC50 [1] is reported as < 10 nM. For the same molecule, the IC50 [2] was < 10 nM.

`C[Si]1(C)CCN(c2nc(N3CC=C(c4ncc(Cl)cn4)CC3)nc3c2[S+]([O-])CC3)CC1` (stereo not drawn) gave an IC50 [1] of 10 to 50 nM.

In the case of `CNC(=O)OCC1(Nc2nc(N3CC=C(c4ncc(Cl)cn4)CC3)nc3c2[S+]([O-])CC3)CCC1` (stereo not drawn), the “Max inhibition (%)” value [3] is reported as 68.15%, the IC50 [3] is reported as 10 to 50 nM and the IC50 [1] is reported as < 10 nM. For the same molecule, the IC50 [2] was < 10 nM.

In the case of `[O-][S+]1CCCc2nc(N3CCN(c4ccc5c(c4)CC5)CC3)nc(NC3(CO)CCC3)c21` (stereo not drawn), the IC50 [1] is reported as < 10 nM and the IC50 [2] is reported as 10 to 50 nM.

`[O-][S+]1CCc2nc(N3C[C@H]4CN(c5ccc6c(c5)CC6)C[C@H]4C3)nc(NC3CCOCC3)c21` (stereo partly drawn) was tested, and the “Max inhibition (%)” value [3] was 72.87%, the IC50 [3] was < 10 nM and the IC50 [1] was < 10 nM. The IC50 [2] was < 10 nM.

For `COC(=O)NCC1(Nc2nc(N3CC=C(c4ncc(C5CC5)cn4)CC3)nc3c2[S+]([O-])CC3)CCC1` (single isomer, unassigned), the IC50 [1] was < 10 nM and the IC50 [2] was < 10 nM.

`NC(=O)OCC1(Nc2nc(N3CCN4c5ccccc5OCC4C3)nc3c2[S+]([O-])CC3)CCC1` (stereo not drawn) was tested, and the “Max inhibition (%)” value [3] was 80.31%, the IC50 [3] was 10 to 50 nM and the IC50 [1] was < 10 nM. The IC50 [2] was < 10 nM.

`[O-][S+]1CCc2nc(N3C[C@H]4CN(c5ccc6c(c5)CC6)C[C@H]4C3)nc(NC3(COC(F)F)CCC3)c21` (stereo partly drawn) showed an IC50 [1] of 10 to 50 nM and an IC50 [2] of 10 to 50 nM.

`CC(O)C1(Nc2nc(N3CC=C(c4ncc(C5CC5)cn4)CC3)nc3c2[S+]([O-])CCC3)CCC1` (single isomer, unassigned) [Compound 144-1] gave an IC50 [1] of 10 to 50 nM and an IC50 [2] of 10 to 50 nM.

In the case of `CC(O)C1(Nc2nc(N3CC=C(c4ncc(C5CC5)cn4)CC3)nc3c2[S+]([O-])CCC3)CCC1` (single isomer, unassigned) [Compound 144-4], the “Max inhibition (%)” value [3] is reported as 94.06%, the IC50 [3] is reported as < 10 nM and the IC50 [1] is reported as < 10 nM. The IC50 [2] was < 10 nM.

In the case of `CC(C)(CO)Nc1nc(N2CC=C(c3ncc(Cl)cn3)CC2)nc2c1[S+]([O-])CC2` (stereo not drawn) [Compound 31], the IC50 [3] is reported as < 10 nM, the IC50 [1] is reported as < 10 nM and the IC50 [2] is reported as < 10 nM.

For `CC(COC(N)=O)Nc1nc(N2CC=C(c3ncc(Cl)cn3)CC2)nc2c1[S@+]([O-])CC2` (single isomer, unassigned) [Compound 133-2], the IC50 [1] was < 10 nM and the IC50 [2] was < 10 nM.

With `NC(=O)OCC1(Nc2nc(N3CC4C=C(c5ncc(Cl)cn5)CC4C3)nc3c2[S+]([O-])CC3)CCC1` (single isomer, unassigned) [Compound 46-1] the “Max inhibition (%)” value [3] was 75.89%, the IC50 [3] was 10 to 50 nM and the IC50 [1] was < 10 nM. The IC50 [2] was < 10 nM.

For `CC(C)(COC(N)=O)Nc1nc(N2CC3C=C(c4ncc5c(n4)CC5)CC3C2)nc2c1[S@+]([O-])CC2` (single isomer, unassigned) [Compound 131-2], the IC50 [1] was 10 to 50 nM and the IC50 [2] was 50 to 100 nM.

For `[O-][S+]1CCCc2nc(N3CC=C(c4ncc(C5CC5)cn4)CC3)nc(N3CCC(O)C34CCC4)c21` (single isomer, unassigned), the IC50 [1] was < 10 nM and the IC50 [2] was < 10 nM.

For `C#Cc1cnc2c(c1)OC[C@@H]1CN(c3nc4c(c(NC(C)(C)COC(N)=O)n3)[S@@+]([O-])CC4)CCN21`, the “Max inhibition (%)” value [3] was 67.98%.

`CC(C)(COC(N)=O)Nc1nc(N2CC3C=C(c4ncc5c(n4)CC5)CC3C2)nc2c1[S@+]([O-])CC2` (single isomer, unassigned) [Compound 131-1] gave an IC50 [1] of 10 to 50 nM and an IC50 [2] of 10 to 50 nM.

With `CC(C)(COC(N)=O)Nc1nc(N2C[C@H]3CN(c4ccc5c(c4)CC5)C[C@H]3C2)nc2c1[S+]([O-])CC2` (stereo partly drawn) the “Max inhibition (%)” value [3] was 75.43%.

`C#Cc1cnc(N2CCN(c3nc4c(c(NC5(CO)CCC5)n3)[S+]([O-])CCC4)CC2)nc1` (stereo not drawn) was tested, and the IC50 [1] was 10 to 50 nM and the IC50 [2] was 10 to 50 nM.

In the case of `CC(COC(N)=O)Nc1nc(N2CC=C(c3ncc(C4CC4)cn3)CC2)nc2c1[S@+]([O-])CC2` (single isomer, unassigned), the IC50 [1] is reported as 10 to 50 nM and the IC50 [2] is reported as 10 to 50 nM.

`C#Cc1cnc2c(c1)OC[C@H]1CN(c3nc4c(c(NC(C)(C)COC(N)=O)n3)[S@@+]([O-])CC4)CCN21` was tested, and the “Max inhibition (%)” value [3] was 76.10%.

`CC(C)(COC(N)=O)Nc1nc(N2CC3C=C(c4ncc(C5CC5)cn4)CC3C2)nc2c1[S@+]([O-])CC2` (single isomer, unassigned) [Compound 121-1] was tested, and the “Max inhibition (%)” value [3] was 78.80%.

For `NC(=O)OCC1(Nc2nc(N3CC4C=C(c5ncc(Cl)cn5)CC4C3)nc3c2[S+]([O-])CC3)CCC1` (single isomer, unassigned) [Compound 46-2], the “Max inhibition (%)” value [3] was 73.36%, the IC50 [3] was 10 to 50 nM and the IC50 [1] was < 10 nM. For the same molecule, the IC50 [2] was 10 to 50 nM.

In the case of `[O-][S+]1CCc2nc(N3CC=C(c4ncc(C5CC5)cn4)CC3)nc(N3CCC(O)C34CCC4)c21` (single isomer, unassigned) [Compound 111-4], the “Max inhibition (%)” value [3] is reported as 78.77%, the IC50 [3] is reported as < 10 nM and the IC50 [1] is reported as < 10 nM. The IC50 [2] was < 10 nM.

For `[O-][S+]1CCc2nc(N3CC=C(c4ncc(C5CC5)cn4)CC3)nc(N3CCC(O)C34CCC4)c21` (single isomer, unassigned) [Compound 111-2], the “Max inhibition (%)” value [3] was 75.39%, the IC50 [3] was < 10 nM and the IC50 [1] was < 10 nM. The IC50 [2] was < 10 nM.

`CC(C)(COC(N)=O)Nc1nc(N2CC=C(c3ncc(C4CC4)cn3)CC2)nc2c1[S+]([O-])CCC2` (stereo not drawn) showed an IC50 [1] of 10 to 50 nM and an IC50 [2] of 10 to 50 nM.

In the case of `[O-][S+]1CCc2nc(N3CC=C(c4ncc(Cl)cn4)CC3)nc(N3CCC(O)C34CCC4)c21` (single isomer, unassigned) [Compound 71-3], the “Max inhibition (%)” value [3] is reported as 61.86%, the IC50 [3] is reported as < 10 nM and the IC50 [1] is reported as 10 to 50 nM. For the same molecule, the IC50 [2] was 10 to 50 nM.

For `CC(COC(N)=O)Nc1nc(N2CC=C(c3ncc(Cl)cn3)CC2)nc2c1[S@+]([O-])CC2` (single isomer, unassigned) [Compound 133-1], the IC50 [1] was < 10 nM and the IC50 [2] was 10 to 50 nM.

In the case of `[O-][S@@+]1CCc2nc(N3CC=C(c4ncc(Cl)cn4)CC3)nc(Nc3cccc(S(F)(F)(F)(F)F)c3)c21`, the “Max inhibition (%)” value [3] is reported as 72.31%, the IC50 [3] is reported as 10 to 50 nM and the IC50 [1] is reported as 10 to 50 nM.

In the case of `N#CCC1(Nc2nc(N3CC=C(c4ncc(Cl)cn4)CC3)nc3c2[S@+]([O-])CC3)CCC1`, the “Max inhibition (%)” value [3] is reported as 71.03%, the IC50 [3] is reported as < 10 nM and the IC50 [1] is reported as < 10 nM. It also gave an IC50 [2] of 10 to 50 nM.
